# Ab-14 light chain CDR variants: yeast mating affinities

Binding partner: SARS-CoV-2 spike HR2 peptide, sequence PDVDLGDISGINAS.

Parent: Ab-14, a human scFv built as VH, the linker GGGGSGGGGSGGGGS, VL. Only the CDRs of the light chain vary.
VH: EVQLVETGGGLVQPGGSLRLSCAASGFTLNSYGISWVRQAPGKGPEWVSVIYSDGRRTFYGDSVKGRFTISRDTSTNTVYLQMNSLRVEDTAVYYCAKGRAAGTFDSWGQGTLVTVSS
VL: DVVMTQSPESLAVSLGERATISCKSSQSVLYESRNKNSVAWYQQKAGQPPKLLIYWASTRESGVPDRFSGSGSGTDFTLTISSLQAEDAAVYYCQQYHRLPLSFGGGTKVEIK

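The starting antibody came from a phage panning campaign against this peptide. Designed CDR sequences, proposed from the first random library and measured here. Group labels follow the data file (Ctrl: baseline library sampled from a position-specific scoring matrix, with some repeated check sequences; GP: Gaussian process model; Gen: genetic algorithm; a sequence that several methods proposed may carry one label only). Affinity was read by AlphaSeq, a pooled yeast mating assay with surface-displayed partners. Binding brings cells together so that they mate, and sequencing counts the barcode pairs among the diploids. Each replicate has its own calibration line, from reference interactions of the BCL2 family. The assay was run in six technical replicates.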

Each variant is given by its three light chain CDRs, as the data file delimits them; those of the parent are KSSQSVLYESRNKNSVA, WASTRES, QQYHRLPLS.
Affinities are written as log10 Kd with Kd in nM; a lower number is a better binder.
Replicates are averaged; those with no signal do not enter the mean.
"nd" marks a missing value. The strain was present, yet no cells mated with the target were sequenced in that replicate, which points to weak or no binding.

| CDR-L1 | CDR-L2 | CDR-L3 | group | log10 Kd (nM) by replicate | log10 Kd (nM), mean | empty controls |
|---|---|---|---|---|---|---|
| KSSQSVLYESKNKNSVA | WASTREY | QQYNRLPLS | Ctrl | 1.93 / 2.27 / 3.08 / 1.70 / 2.04 / 2.59 | 2.27 | 0/18 |
| KSSQSLLYESRNKNSVA | WASTRES | QQYQRLPLS | Ctrl | 2.55 / 1.55 / 2.06 / 1.32 / 1.48 / 1.68 | 1.77 | 0/18 |
| KQSQSVLFENRNKNSVA | WASTRES | QQYHRWPLS | Ctrl | nd / nd / nd / nd / nd / nd | nd | 0/18 |
| KFSQSWLYESRNKNSVA | RASMRES | QQYHRLPFS | Ctrl | 0.73 / 0.77 / 0.61 / 0.63 / 1.14 / 1.05 | 0.82 | 1/18 (3.07) |
| KSSLSVLYESRNKNSVA | WASTRVS | QQYHRLPLS | Ctrl | 1.85 / 2.16 / 1.55 / 1.39 / 1.90 / 2.03 | 1.81 | 0/18 |
| KVSQSVLYENDNKNSVA | AASTRED | QQYHRLPLS | Ctrl | 0.02 / 0.08 / 0.11 / 0.08 / -0.16 / 0.20 | 0.06 | 0/18 |
| KSSQSVLYEVNNKNSVA | WASTRES | QQYHRLPLL | Ctrl | 2.42 / 2.66 / nd / 2.21 / 2.06 / 2.77 | 2.42 | 1/18 (2.41) |
| KASQSVLYESRNKNSVA | WASTRES | QQYHRLPLY | Ctrl | 0.84 / 1.23 / 1.54 / 1.05 / 0.31 / 1.37 | 1.06 | 0/18 |
| KSSQSVLYEGRNKNSVA | QASTRVP | QQYHRLPLS | Ctrl | 0.92 / 0.57 / 0.80 / 0.39 / 0.21 / 0.82 | 0.62 | 3/18 (2.20) |
| KSSQSVLYMSENKNSVA | WASTRES | QQYHRLTLS | Ctrl | nd / nd / nd / nd / nd / nd | nd | 0/18 |
| KSSQSVLWESRNKNSVA | RASTREM | QVYARLPLS | Ctrl | nd / nd / nd / nd / nd / nd | nd | 1/18 (1.58) |
| KISQSDLYESLNKNSVA | QASTREY | QQYHRLPLS | Ctrl | nd / 1.50 / nd / nd / 0.73 / 1.35 | 1.19 | 0/18 |
| KSSQSVLYESRNKNGVA | WASTRES | QQYHRLPLS | Ctrl | 0.98 / 0.95 / 1.36 / 1.27 / 2.61 / 1.16 | 1.39 | 0/18 |
| KNSQGVLYESLNKNSVA | DASTRES | QQYHRLPLS | Ctrl | 0.34 / 0.18 / 0.34 / -0.31 / -0.19 / -0.03 | 0.06 | 0/18 |
| KISQSELYESRNKNSVA | WATTRES | QQYHRLPLS | Ctrl | 0.43 / 0.17 / 0.08 / -0.10 / -0.33 / -0.11 | 0.02 | 0/18 |
| KSSQSVLYEMRFKNSVA | WASTRES | QQYHRLPLS | Ctrl | nd / nd / nd / nd / nd / nd | nd | 0/18 |
| KSSQSVLYESRNHNSVA | EASTRES | QQYARLPLS | Ctrl | 0.29 / 0.02 / 0.01 / 0.02 / -0.26 / 0.25 | 0.06 | 1/18 (2.24) |
| KSSQSVLYESVNKNSVA | WASTRES | QQYIREPLS | Ctrl | nd / nd / nd / 1.94 / nd / nd | 1.94 | 1/18 (2.47) |
| KSSQSVRYESRNKNSVA | NASTRLS | QQYHRLPLS | Ctrl | 1.79 / 2.06 / 1.72 / 2.19 / 1.87 / 3.15 | 2.13 | 1/18 (2.79) |
| KSSQSVLEESRNKNSVA | DASTRES | PQYHRLPLS | Ctrl | nd / nd / nd / nd / nd / nd | nd | 0/18 |
| KASFSVLYESRNKNSVA | GGSTNES | QQYHRLPLS | Ctrl | nd / 3.97 / nd / 2.82 / 2.11 / 2.61 | 2.88 | 0/18 |
| KSSQSVLYESRNVNSVA | WDSTRVS | QQYHRLPLS | Ctrl | 1.65 / 1.23 / 1.06 / 0.61 / 1.25 / 1.73 | 1.25 | 0/18 |
| KLSQSVLYESQNKNSVA | WAKTRES | QQYVRLPLS | Ctrl | 1.85 / 2.04 / 2.00 / 2.28 / 2.65 / 2.45 | 2.21 | 1/18 (2.41) |
| KLSQSVLYESRNKNSIA | DASTRFS | QQWHRLPLS | Ctrl | 0.83 / 0.64 / 0.61 / 0.55 / 0.49 / 0.82 | 0.66 | 0/18 |
| KSSYSVLYESRNKNSVA | WASTRIS | NQYHRLPLC | Ctrl | nd / nd / nd / nd / nd / nd | nd | 0/18 |
| KISQSVLYESRNQNSVA | GASKRES | QQYHRLPLS | Ctrl | -0.33 / -0.37 / -0.65 / -0.69 / -0.89 / -0.37 | -0.55 | 0/18 |
| KSSQSVEYESRNKNSVA | WARTRES | QQYHRLPLS | Ctrl | nd / 0.97 / nd / nd / nd / nd | 0.97 | 0/18 |
| KSSQSVLYESENKNSVA | WAYTRES | QQYHRLPLS | Ctrl | 1.32 / 1.37 / 2.16 / 3.00 / 1.75 / nd | 1.92 | 0/18 |
| KMSQSVLKESRNKNSVA | HASTREF | QQYHRLPLS | Ctrl | 0.76 / 0.31 / 0.66 / 0.65 / 0.61 / 0.68 | 0.61 | 1/18 (2.10) |
| KSSQSDLYESRNKNSVA | WASTCES | QQYHRLPLS | Ctrl | nd / nd / nd / nd / nd / nd | nd | 1/18 (2.09) |
| KVEQSVLEESRNKNSVA | WASTRES | QQYHRLPLS | Ctrl | 0.76 / 1.04 / 0.65 / 0.61 / 0.55 / 0.67 | 0.71 | 0/18 |
| KSSQSVLAESRNHNSVA | WASTRES | QQYHRLPLS | Ctrl | 2.17 / 1.41 / 1.99 / 1.32 / 1.31 / 1.40 | 1.60 | 0/18 |
| KLSQSVLYESRNKNSVA | MASTRES | QQYHRLPLS | Ctrl+GP_Gen | nd / nd / nd / nd / nd / nd; 0.03 / -0.13 / 0.01 / -0.58 / -0.52 / -0.25 | -0.24 | 1/36 (1.86) |
| KVFQNVLMESRNKNSVA | AASTRES | QQYHRLPLS | Ctrl | 0.36 / 0.03 / 0.02 / 0.06 / 0.07 / 0.31 | 0.14 | 3/18 (2.75) |
| KDSQSVLYESRNKNSVA | NASTRES | QQYHRLPLS | Ctrl | 0.24 / 0.37 / 0.09 / 0.20 / 0.03 / 0.32 | 0.21 | 2/18 (2.71) |
| KSSQSMLYESRNKNSVA | WASTRES | AQYHRLPLS | Ctrl | nd / nd / nd / nd / nd / nd | nd | 0/18 |
| KSSQSMLYESSNKNSVA | WASVRES | QQYHRLPLS | Ctrl | 1.83 / 1.57 / 1.02 / 1.28 / 1.64 / 1.14 | 1.41 | 1/18 (3.37) |
| KSSQRVLYESRIKNSVA | WASTRES | QQYHRLPLS | Ctrl | 1.87 / nd / nd / nd / nd / nd | 1.87 | 0/18 |
| KSSQSVWYESRNKNSGA | WASTRRS | QQYHRLPLS | Ctrl | nd / nd / nd / nd / nd / nd | nd | 0/18 |
| KSSQSVLYESRNKNSVA | HASIRSS | QAYHRLPLS | Ctrl | 1.67 / 1.35 / 1.38 / 1.53 / 1.43 / 1.53 | 1.48 | 3/18 (3.72) |
| KSRQSVLYESNNKNSVA | WASTRES | QLYHMLELS | Ctrl | nd / nd / nd / nd / nd / nd | nd | 0/18 |
| KSSQSFLYEDRNKNSVA | WASTRES | QQYHRLPLS | Ctrl | 1.72 / 2.76 / 1.13 / 2.06 / 1.37 / nd | 1.81 | 0/18 |
| KSSQQVLYETSNKNSVA | EASTRES | QQYHRLPLS | Ctrl | 0.64 / 0.63 / 0.11 / 0.03 / 0.41 / 0.17 | 0.33 | 1/18 (2.27) |
| KFSQSVCKESRNKNSVA | QASTRES | QQYHRLPLS | Ctrl | 0.46 / 0.20 / 0.24 / 0.22 / 0.22 / 0.41 | 0.29 | 1/18 (2.55) |
| KDSQSVLTESRNKNNVA | WASHRES | QQYHRLPLS | Ctrl | 2.12 / 1.89 / 1.68 / 1.28 / 1.64 / 1.52 | 1.69 | 0/18 |
| KSMQSVLDESLNKNSVA | WASTRES | QQYHRLPLS | Ctrl | 1.56 / 1.09 / 1.80 / 1.71 / 1.97 / 1.39 | 1.59 | 0/18 |

The closing 5 entries, repeated:

CDR-L1	CDR-L2	CDR-L3	group	log10 Kd (nM) by replicate	log10 Kd (nM), mean	empty controls
KSSQSFLYEDRNKNSVA	WASTRES	QQYHRLPLS	Ctrl	1.72 / 2.76 / 1.13 / 2.06 / 1.37 / nd	1.81	0/18
KSSQQVLYETSNKNSVA	EASTRES	QQYHRLPLS	Ctrl	0.64 / 0.63 / 0.11 / 0.03 / 0.41 / 0.17	0.33	1/18 (2.27)
KFSQSVCKESRNKNSVA	QASTRES	QQYHRLPLS	Ctrl	0.46 / 0.20 / 0.24 / 0.22 / 0.22 / 0.41	0.29	1/18 (2.55)
KDSQSVLTESRNKNNVA	WASHRES	QQYHRLPLS	Ctrl	2.12 / 1.89 / 1.68 / 1.28 / 1.64 / 1.52	1.69	0/18
KSMQSVLDESLNKNSVA	WASTRES	QQYHRLPLS	Ctrl	1.56 / 1.09 / 1.80 / 1.71 / 1.97 / 1.39	1.59	0/18

Values of this round are not directly comparable with the first-round values of the same sequences.
Three control strains display no target. For all light chain designs, 4% of the pairings with them gave a signal, with a median of 2.64 and one signal in twenty below 1.59, so weak values seen in few replicates may be background. The control count says in how many pairings with the empty strains this scFv gave a signal, with their mean in brackets.
A sequence that the file lists under several names has all its replicates listed entry by entry, parted by semicolons.
The authors averaged sequences with at least three values out of six and counted those with two or fewer as poor binders.

The measurements come from Li et al. 2023 (doi:10.1038/s41467-023-39022-2) through the FLAb antibody collection.